The values that follow come from PubChem BioAssay AID925 (National Center for Advancing Translational Sciences (NCATS), 2007).

The list shows a part of the results, in another mix than the full data. Active and inactive are the calls of the source. Calls come from the whole dose curve; as a rule, active = well fitted activation curve with a large enough effect; inconclusive = small, poorly fitted or top-dose-only effect; inactive = flat fitted curve, though single readings scatter.

A short description of this assay: qHTS Assay for Modulators of Hemoglobin Beta Chain Splicing. Note: 0% is about no effect. As to conditions: HBB splicing reporter cell assay, EGFP reporter with mutant IVS2-654 intron, normalised to 500 nM splice-correcting PNA; at 46.1 µM unless noted. From the text:
NIH Chemical Genomics Center [NCGC]
NIH Molecular Libraries Screening Centers Network [MLSCN]
PI Name: Dr. Ryszard Kole
Modulation of Alternative Splicing as Therapy
Abnormal splicing is associated with a number of diseases, including cancer and genetic diseases such as cystic fibrosis, muscular dystrophy and beta-thalassemia. Alteration of disease associated splicing patterns provides a promising target for treatment. […] Mutations in the second intron of the beta-globin gene at positions are clinically relevant and cause mis-splicing which results in an out of frame gene product.
EGFP-654 and 705 HeLa Cells as screen system.
HeLa cell lines were stably transfected with a construct in which the EGFP (enhanced green fluorescent protein) cDNA was interrupted by the second intron of the beta-globin gene (IVS2-654). The ISV2 intron contains mutations which cause mis-splicing of EGFP and premature termination of EGFP which results in a nonfluorescent protein product. […] Expression of the transgene was driven by the CMV promoter. We concluded that a low molecular weight compound, which restored correct splicing of intron 2 would also generate functional EGFP protein, resulting in a fluorescent signal. Thus, the HeLa cells that express the EGFP-654 construct can be used for high throughput screening of a chemical library.
NCGC Assay Protocol Summary:
High Throughput Screening. Freshly thawed HeLa EGFP-654 cells were seeded in 5 ul of optimem media (Invitrogen) containing 2 % fetal calf serum (Hyclone) and 1x penicillin/streptomycin (Invitrogen) at a concentration of 500 cells per well in 1536-well plates. Cells were incubated overnight at 37C in 5% CO2. The next day, cells were treated with DMSO, 500 nM antisense ISV2 654 PNA control oligo, or library compound and allowed to grow at 37C in 5% CO2 for 2 days. The PNA oligo blocked the mutation site in the intron and allowed proper (wild type) splicing to occur, resulting in full length EGFP expression and also allowed for optimization of the assay parameters. Plates were read in the Acumen Explorer (TTP Labtech) using 488 nm laser excitation and 500-520 nm emission PMT filter in a 1 x […] capture mode. Fluorescnet Fluorescent objects ranging in size from […] were measured and the total peak GFP intensity for each well was used for data analysis.
Keywords: Thalassemia, beta-thalassemia, beta-globin, EGFP, ISV2 654, ISV2 705, SSO, PNA, antisense, splicing, MLSMR, MLSCN, NIH Roadmap, qHTS, NCGC
A general note: Quantitative high-throughput screening tests each substance at several concentrations.
For the molecule `O=C(OC1CN2CCC1CC2)C1c2ccccc2Oc2ccccc21` (stereo not given), the activation is inactive: 3.61% [at 1.84 µM].
With `N#CC1(Nc2ccccc2)CCN(CCc2ccccc2)CC1` the figure was inactive: -2.25%; with `NC1CCCCC1.NP(=O)(O)N(CCCl)CCCl`, inactive: 2.37% [at 9.22 µM]; with `CCOP(=O)(Cl)Cl`, inactive: 1.15%.
On to `N/C(=N\O)c1c(N)no[n+]1[O-]`, for which the activation is inactive: -4.43% [at 57.5 µM].
For `ClCCOP(OCCCl)OCCCl` the value was inactive: 0.517%.
For `Fc1ccccc1NC1CCN(Cc2ccccc2)CC1` the value was inactive: 0.291% [at 9.22 µM].
For the molecule `CCC(CO)(C(=O)OC1CN2CCC1CC2)c1ccccc1` (stereo not given), the activation was inactive: -0.553%.
For `O=C(O)C1(Nc2ccccc2)CCN(Cc2ccccc2)CC1` the value was inactive: 1.98% [at 9.22 µM]; for `CCOc1ncccc1C(=O)NCC1(N2CCOCC2)CCCCC1`, inactive: 1.15%.
